Drawing on PubChem BioAssay AID2147 (National Center for Advancing Translational Sciences (NCATS), 2009), this text covers activity change, negative = inhibition for 77 compounds.

By UniProt entry, the sequences of proteins in these tests, tags left out. Residues count along the entry.
UniProt B2RXH2, 1-337 limits assumed: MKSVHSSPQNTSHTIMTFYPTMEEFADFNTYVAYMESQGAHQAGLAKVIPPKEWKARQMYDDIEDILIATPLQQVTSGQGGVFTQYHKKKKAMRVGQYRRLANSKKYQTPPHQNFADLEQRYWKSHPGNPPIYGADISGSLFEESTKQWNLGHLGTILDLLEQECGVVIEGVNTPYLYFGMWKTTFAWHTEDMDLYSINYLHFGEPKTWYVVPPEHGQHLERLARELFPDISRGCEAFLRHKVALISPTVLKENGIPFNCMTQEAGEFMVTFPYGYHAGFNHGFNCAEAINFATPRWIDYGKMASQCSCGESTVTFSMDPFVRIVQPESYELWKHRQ

The list shows a part of the results, in another mix than the full data. Results filed as inconclusive are left out. Activity calls are given as the source filed them. Calls follow the shape of the dose curve; as a rule, active = well fitted inhibition curve with a large enough effect (not every such curve was filed as active); inconclusive = small, poorly fitted or top-dose-only effect, or another doubt; inactive = no such curve, though single readings can be large or run the other way.
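Also: 0% = wells with enzyme and -100% = buffer wells without enzyme; nearly all actives have a fitted effect of over 50% in size.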

This experiment deals with Lysine-specific demethylase 4E (Homo sapiens) (UniProt B2RXH2). Put plainly: qHTS Assay for Inhibitors of Human Jumonji Domain Containing 2E (JMJD2E). Particulars: JMJD2E catalytic domain, FDH-coupled NADH fluorescence (FDH is formaldehyde dehydrogenase); at 57.1 µM (top of the series) unless noted.
`Cc1cccc(C)c1OP(C)(=O)Nc1ccc(SC(F)(F)F)cc1` (configuration not stated): the activity change, negative = inhibition was inactive: -14%. As to `CP(=O)(Nc1ccc(SC(F)(F)F)cc1)Oc1ccc(Cl)cc1` (configuration not stated), the activity change, negative = inhibition is inactive: -0.129%. `CP(=O)(Oc1ccccc1)OC(c1ccccc1)C(F)(F)F` (configuration not stated): the activity change, negative = inhibition was inactive: -2.73%.

As to `CCc1ccc(OP(C)(=O)N2CCN(c3ccc([N+](=O)[O-])cc3)CC2)cc1` (configuration not stated), the activity change, negative = inhibition was inactive: -20.7%. On to `CP(=O)(NC(=O)Nc1ccccc1)Oc1ccccc1` (configuration not stated), for which the activity change, negative = inhibition was inactive: -1.3%.

On to `Cc1cc(C)cc(OP(C)(=O)Nc2ccc(SC(F)(F)F)cc2)c1` (configuration not stated), for which the activity change, negative = inhibition was inactive: -0.0845%.

Take `CCOC(=O)c1ccc(NP(C)(=O)Oc2ccc(OC)cc2)cc1` (configuration not stated): the activity change, negative = inhibition is inactive: 18.3%. Take `CP(=O)(Nc1ccccn1)Oc1ccc(Cl)cc1` (configuration not stated): the activity change, negative = inhibition was inactive: 0.638%. `CP(=S)(Nn1cnnc1)Oc1ccccc1` (configuration not stated): the activity change, negative = inhibition is inactive: -2.22%.

As for `CP(=O)(Nc1ccccc1Br)Oc1ccccc1` (configuration not stated), the activity change, negative = inhibition is inactive: 0.445%. Under `COc1ccccc1OP(C)(=O)Nc1ccccc1` (configuration not stated) stands inactive: 4.23%; under `O=[N+]([O-])c1ccc2c(c1)C=Nc1ccccc1O2`, inactive: 0.691%. `CC(C)(C)c1ccc(OP(C)(=O)Nc2ccc(SC(F)(F)F)cc2)cc1` (configuration not stated): the activity change, negative = inhibition was inactive: -3.79%. As for `Cc1cccc(C)c1OP(C)(N)=O` (configuration not stated), the activity change, negative = inhibition was inactive: -3.58%.

For `COc1ccccc1OP(C)(=O)Nc1ccc(C)cc1` (configuration not stated), the activity change, negative = inhibition is inactive: 0.248%. With `Cc1ccc(NP(C)(=O)Oc2ccccc2)c(C)c1` (configuration not stated), the activity change, negative = inhibition was inactive: 1.04%. With `CCOC(=O)c1ccc(NP(C)(=O)Oc2ccccc2)cc1` (configuration not stated) the figure was inactive: 8.22%; with `Cc1cc(C)cc(OP(C)(N)=O)c1` (configuration not stated), inactive: -6.94%; with `COc1ccccc1OP(C)(=O)Nc1cc(Cl)ccc1C` (configuration not stated), inactive: -3.33%. On to `COc1ccc(OP(C)(=O)Nc2cccc(F)c2)cc1` (configuration not stated), for which the activity change, negative = inhibition is inactive: 6.52%. As for `CCN(CC)CCCOC(=O)C(O)(c1ccccc1)c1ccccc1`, the activity change, negative = inhibition was inactive: 15.9%. For the compound `COc1ccccc1OP(C)(=O)Nc1cccc(Br)c1` (configuration not stated), the activity change, negative = inhibition is inactive: -1.19%. For `CCOC(=O)c1ccc(NP(C)(=O)Oc2cc(C)cc(C)c2)cc1` (configuration not stated), the activity change, negative = inhibition was inactive: -2.92%. Under `Cc1cc(C)cc(OP(C)(=O)Nc2ccc(C)cc2C)c1` (configuration not stated) stands inactive: 4.16%; under `Cc1ccc(C)c(NP(C)(=O)Oc2ccccc2)c1` (configuration not stated), inactive: 5.7%; under `CP(=O)(Nc1cccc(Br)c1)Oc1ccccc1` (configuration not stated), inactive: 7.72%. Regarding `Cc1cc(C)cc(OP(C)(=O)Nc2ccccn2)c1` (configuration not stated), the activity change, negative = inhibition is inactive: 0.416%. Take `O=[N+]([O-])c1cc([N+](=O)[O-])c(Nc2nnnn2CCO)c([N+](=O)[O-])c1`: the activity change, negative = inhibition was inactive: -25.8%. With `COc1ccccc1OP(C)(=O)Nc1c(C)cccc1C` (configuration not stated) the figure was inactive: 5.75%. Regarding `CN1CCCCC1COC(=O)C1(O)c2ccccc2CCc2ccccc21` (configuration not stated), the activity change, negative = inhibition is inactive: 1.27%. For the compound `CP(=O)(Nc1ccc(SC(F)(F)F)cc1)Oc1ccccc1` (configuration not stated), the activity change, negative = inhibition was inactive: -9.41%.

Turning to `CCCOc1ccc(NP(C)(=O)Oc2ccc(Cl)cc2)cc1` (configuration not stated), the activity change, negative = inhibition was inactive: 2.47%. With `O=[N+]([O-])c1cc([N+](=O)[O-])c(-n2nnc3ccccc32)c([N+](=O)[O-])c1`, the activity change, negative = inhibition was inactive: -5.96%. In the case of `Cc1nc2ccc3ccccc3c2s1.O=[N+]([O-])c1cc([N+](=O)[O-])c(O)c([N+](=O)[O-])c1`, the activity change, negative = inhibition is inactive: -8.04%. As to `CP(=O)(Nc1ccc(SC(F)(F)F)cc1)Oc1ccc(F)cc1` (configuration not stated), the activity change, negative = inhibition was inactive: -7.96%. Under `CCOP(C)(=S)SCC(=O)NC(C)(CC)C(=O)O` (configuration not stated) stands inactive: 0.789%; under `CP(=O)(Nc1ccc2c(c1)OCCO2)Oc1ccccc1` (configuration not stated), inactive: -4.36%; under `CCN(CCCl)Cc1ccccc1C`, inactive: -1.3%. Consider `Cc1ccccc1NP(C)(=O)Nc1ccccc1C`, for which the activity change, negative = inhibition is inactive: 11%. Turning to `COc1ccc(OP(C)(=O)Nc2cccc(Br)c2)cc1` (configuration not stated), the activity change, negative = inhibition was inactive: 2.82%. With `CN(C)CCOC(=O)C(O)(c1ccccc1)C1CCCCC1` (configuration not stated) the figure was inactive: 4.42%; with `COc1ccc(NP(C)(=O)Oc2ccccc2OC)cc1` (configuration not stated), inactive: 5.32%. As to `O=[N+]([O-])c1ccc(OP2(=O)COCCO2)cc1` (configuration not stated), the activity change, negative = inhibition was inactive: 4.91%. Regarding `CCOC(=O)c1ccc(NP(C)(=O)Oc2ccc(F)cc2)cc1` (configuration not stated), the activity change, negative = inhibition is inactive: 10.2%. With `COc1ccc(OP(C)(=O)Nc2ccc(SC(F)(F)F)cc2)cc1` (configuration not stated), the activity change, negative = inhibition was inactive: -4.75%. As to `CCN(CC)CCCOC(=O)C(O)(c1ccccc1)C1CCCCC1` (configuration not stated), the activity change, negative = inhibition is inactive: 5.5%. For the compound `CP(=O)(Nc1ccccc1)Oc1ccc(F)cc1` (configuration not stated), the activity change, negative = inhibition is inactive: 1.1%. `CCCCCOc1ccc(NP(C)(=O)Oc2ccc(Cl)cc2Cl)cc1` (configuration not stated): the activity change, negative = inhibition was inactive: -26.7%. Turning to `CP(=O)(Nc1ccccc1F)Oc1ccccc1` (configuration not stated), the activity change, negative = inhibition was inactive: 4.35%. As to `CC(C)c1ccc(OP(C)(=O)Nc2ccc(SC(F)(F)F)cc2)cc1` (configuration not stated), the activity change, negative = inhibition is inactive: -7.33%. For `O=C(OCCN1CCN(CCOCc2ccccc2)CC1)C(O)(c1ccccc1)c1ccccc1`, the activity change, negative = inhibition is inactive: -7.18%. For the compound `COc1ccccc1OP(C)(=O)Nc1ccc(Br)cc1` (configuration not stated), the activity change, negative = inhibition is inactive: -0.0831%. In the case of `COc1ccc(OP(C)(=O)Nc2ccccn2)cc1` (configuration not stated), the activity change, negative = inhibition is inactive: 4.88%. In the case of `CN(C)CCOC(=O)C(O)(c1ccccc1)C1CCCC1` (configuration not stated), the activity change, negative = inhibition was inactive: 5.59%. Take `Cc1c(NP(C)(=O)Oc2ccc(C(C)C)cc2)c(=O)n(-c2ccccc2)n1C` (configuration not stated): the activity change, negative = inhibition is inactive: -1.26%.

As to `CP(=O)(Nc1ccccn1)Oc1ccccc1` (configuration not stated), the activity change, negative = inhibition was inactive: -7.43%. Under `COc1ccccc1OP(C)(=O)Nc1ccc(C)cc1C` (configuration not stated) stands inactive: 1.71%. Consider `CCc1ccc(OP(C)(=O)O)cc1`, for which the activity change, negative = inhibition is inactive: -2.83%.

Regarding `Cc1cc(C)cc(OP(C)(=O)Nc2cccc(C(F)(F)F)c2)c1` (configuration not stated), the activity change, negative = inhibition is inactive: 0.228%. Consider `COc1ccccc1OP(C)(=O)Nc1ccc(C)c(C)c1` (configuration not stated), for which the activity change, negative = inhibition was inactive: 5.51%. In the case of `COc1ccc(OP(C)(=O)Nc2ccccc2Br)cc1` (configuration not stated), the activity change, negative = inhibition is inactive: 2.79%.

On to `CP(=O)(OCCOc1ccccc1)OCCOc1ccccc1`, for which the activity change, negative = inhibition is inactive: 8.06%. Turning to `CP(=O)(Nc1ccc(Cl)cc1Cl)Oc1ccccc1` (configuration not stated), the activity change, negative = inhibition was inactive: 3.33%. Consider `CCOC(=O)c1ccc(NP(C)(=O)Oc2ccc(Cl)cc2)cc1` (configuration not stated), for which the activity change, negative = inhibition was inactive: 14.5%. Under `CP(=O)(OC12CC3CC(CC(C3)C1)C2)OC12CC3CC(CC(C3)C1)C2` stands inactive: 1.8%; under `C/C1=C2N=C(/C=C3N=C(/C(C)=C4\[N-][C@@](C)([C@H]5N=C1[C@@](C)(CCC(=O)NC[C@H](C)OP(=O)([O-])O[C@@H]1[C@H](O)[C@H](n6cnc7cc(C)c(C)cc76)O[C@@H]1CO)[C@@H]5CC(N)=O)[C@](C)(CC(N)=O)[C@H]4CCC(N)=O)[C@@](C)(CC(N)=O)[C@@H]\3CCC(N)=O)C(C)(C)[C@@H]/2CCC(N)=O.[C-]#N.[Co+3]`, inactive: -8.82% [at 25.5 µM]. On to `CCN(CC)CC(O)COC(=O)C(O)(c1ccccc1)C1CCCCC1` (configuration not stated), for which the activity change, negative = inhibition was inactive: 1.73%.

For `COc1ccc(OP(C)(=O)Nc2ccc(Br)cc2)cc1` (configuration not stated), the activity change, negative = inhibition is inactive: 3.01%. Turning to `COc1ccccc1OP(C)(=O)Nc1c(C)n(C)n(-c2ccccc2)c1=O` (configuration not stated), the activity change, negative = inhibition was inactive: 0.759%. With `OCCSCCO` the figure was inactive: 12.6%; with `O=C(OCCCN1CCCC1)C(O)(c1ccccc1)C1CCCCC1` (configuration not stated), inactive: -0.0302%. For the compound `CP(=O)(Oc1ccccc1)N1CCOC1=O` (configuration not stated), the activity change, negative = inhibition was inactive: 0.718%.

Turning to `CCc1ccc(OP(C)(=O)Nc2cccnc2)cc1` (configuration not stated), the activity change, negative = inhibition is inactive: -3.04%. With `CC(C)(C)c1ccc(OP(C)(=O)O)cc1`, the activity change, negative = inhibition was inactive: 3.65%.

Turning to `COc1ccccc1OP(C)(=O)Nc1ccccc1Br` (configuration not stated), the activity change, negative = inhibition was inactive: 7.56%. Take `CP(=O)(Nc1ccc(Cl)cc1)Oc1ccc(F)cc1` (configuration not stated): the activity change, negative = inhibition was inactive: -0.323%. On to `CN(C)C(=O)c1c([N+](=O)[O-])cc([N+](=O)[O-])cc1[N+](=O)[O-]`, for which the activity change, negative = inhibition is inactive: -6.73%.
